A short description of the data set: plasma content (bioavailability) after administration. The following applies: after the administration.

For the compound `CC(C)Cc1ccc(C(C)C(=O)O)cc1` (stereo not shown) [Ibuprofen, 2-(4-isobutyl-phenyl)-propionic acid], the “time at which bioavailability falls down” value turned out to be 3 h.

Values taken from patent publication US4268685A, “Salicylamide esters and related pharmaceutical composition” (Neopharmed S.p.A., priority 1979, dated 1981).
